Reference: patent publication EP4831180A1, “NOVEL KINASE INHIBITOR” (dated 2026)
pIC50: −log10 of the molar value.

Amino acid sequences for entries named in this document (tags omitted). Residues count along the entry.
UniProt Q9UM73, 19-1620 I1171N/D1203N limits assumed: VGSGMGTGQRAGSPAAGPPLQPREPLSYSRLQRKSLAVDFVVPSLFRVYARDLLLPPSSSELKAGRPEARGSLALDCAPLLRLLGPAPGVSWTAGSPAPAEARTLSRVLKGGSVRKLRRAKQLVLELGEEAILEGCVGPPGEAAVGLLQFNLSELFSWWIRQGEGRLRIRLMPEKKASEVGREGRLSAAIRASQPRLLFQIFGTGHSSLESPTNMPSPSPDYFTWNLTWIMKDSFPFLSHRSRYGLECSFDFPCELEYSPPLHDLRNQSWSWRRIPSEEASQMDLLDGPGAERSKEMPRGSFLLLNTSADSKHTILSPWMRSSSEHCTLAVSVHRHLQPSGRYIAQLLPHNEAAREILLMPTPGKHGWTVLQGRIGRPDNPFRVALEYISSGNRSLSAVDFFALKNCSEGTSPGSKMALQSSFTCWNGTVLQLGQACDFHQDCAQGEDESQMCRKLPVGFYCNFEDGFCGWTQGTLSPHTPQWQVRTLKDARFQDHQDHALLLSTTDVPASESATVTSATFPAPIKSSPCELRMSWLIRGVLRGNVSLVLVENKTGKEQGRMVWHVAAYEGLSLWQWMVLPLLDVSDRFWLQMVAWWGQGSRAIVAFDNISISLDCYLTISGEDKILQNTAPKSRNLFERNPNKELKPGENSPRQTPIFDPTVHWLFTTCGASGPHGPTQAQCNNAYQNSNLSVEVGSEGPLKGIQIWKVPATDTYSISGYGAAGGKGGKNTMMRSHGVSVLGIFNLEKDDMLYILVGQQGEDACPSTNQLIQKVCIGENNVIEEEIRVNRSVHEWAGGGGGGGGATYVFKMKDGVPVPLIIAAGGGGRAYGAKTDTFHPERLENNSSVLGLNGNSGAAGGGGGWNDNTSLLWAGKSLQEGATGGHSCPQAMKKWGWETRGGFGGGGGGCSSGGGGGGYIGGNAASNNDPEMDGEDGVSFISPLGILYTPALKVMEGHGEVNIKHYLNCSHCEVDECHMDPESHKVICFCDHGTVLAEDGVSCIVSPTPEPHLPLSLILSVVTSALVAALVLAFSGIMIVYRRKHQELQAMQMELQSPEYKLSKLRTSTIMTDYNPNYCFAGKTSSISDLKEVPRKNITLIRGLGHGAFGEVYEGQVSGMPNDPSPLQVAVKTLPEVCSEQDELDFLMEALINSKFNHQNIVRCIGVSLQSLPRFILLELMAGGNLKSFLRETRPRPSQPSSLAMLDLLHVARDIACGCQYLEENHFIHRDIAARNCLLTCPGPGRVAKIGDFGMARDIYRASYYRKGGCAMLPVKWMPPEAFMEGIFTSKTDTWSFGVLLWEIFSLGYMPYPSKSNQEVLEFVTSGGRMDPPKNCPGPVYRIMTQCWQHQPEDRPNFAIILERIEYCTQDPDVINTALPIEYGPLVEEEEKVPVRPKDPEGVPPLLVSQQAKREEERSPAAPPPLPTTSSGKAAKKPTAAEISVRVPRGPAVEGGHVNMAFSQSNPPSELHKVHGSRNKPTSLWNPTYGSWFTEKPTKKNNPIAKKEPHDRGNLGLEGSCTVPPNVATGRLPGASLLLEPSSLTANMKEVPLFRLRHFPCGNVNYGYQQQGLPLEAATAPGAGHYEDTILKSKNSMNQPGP
UniProt Q9UM73, 19-1620 L1196M/G1202R limits assumed: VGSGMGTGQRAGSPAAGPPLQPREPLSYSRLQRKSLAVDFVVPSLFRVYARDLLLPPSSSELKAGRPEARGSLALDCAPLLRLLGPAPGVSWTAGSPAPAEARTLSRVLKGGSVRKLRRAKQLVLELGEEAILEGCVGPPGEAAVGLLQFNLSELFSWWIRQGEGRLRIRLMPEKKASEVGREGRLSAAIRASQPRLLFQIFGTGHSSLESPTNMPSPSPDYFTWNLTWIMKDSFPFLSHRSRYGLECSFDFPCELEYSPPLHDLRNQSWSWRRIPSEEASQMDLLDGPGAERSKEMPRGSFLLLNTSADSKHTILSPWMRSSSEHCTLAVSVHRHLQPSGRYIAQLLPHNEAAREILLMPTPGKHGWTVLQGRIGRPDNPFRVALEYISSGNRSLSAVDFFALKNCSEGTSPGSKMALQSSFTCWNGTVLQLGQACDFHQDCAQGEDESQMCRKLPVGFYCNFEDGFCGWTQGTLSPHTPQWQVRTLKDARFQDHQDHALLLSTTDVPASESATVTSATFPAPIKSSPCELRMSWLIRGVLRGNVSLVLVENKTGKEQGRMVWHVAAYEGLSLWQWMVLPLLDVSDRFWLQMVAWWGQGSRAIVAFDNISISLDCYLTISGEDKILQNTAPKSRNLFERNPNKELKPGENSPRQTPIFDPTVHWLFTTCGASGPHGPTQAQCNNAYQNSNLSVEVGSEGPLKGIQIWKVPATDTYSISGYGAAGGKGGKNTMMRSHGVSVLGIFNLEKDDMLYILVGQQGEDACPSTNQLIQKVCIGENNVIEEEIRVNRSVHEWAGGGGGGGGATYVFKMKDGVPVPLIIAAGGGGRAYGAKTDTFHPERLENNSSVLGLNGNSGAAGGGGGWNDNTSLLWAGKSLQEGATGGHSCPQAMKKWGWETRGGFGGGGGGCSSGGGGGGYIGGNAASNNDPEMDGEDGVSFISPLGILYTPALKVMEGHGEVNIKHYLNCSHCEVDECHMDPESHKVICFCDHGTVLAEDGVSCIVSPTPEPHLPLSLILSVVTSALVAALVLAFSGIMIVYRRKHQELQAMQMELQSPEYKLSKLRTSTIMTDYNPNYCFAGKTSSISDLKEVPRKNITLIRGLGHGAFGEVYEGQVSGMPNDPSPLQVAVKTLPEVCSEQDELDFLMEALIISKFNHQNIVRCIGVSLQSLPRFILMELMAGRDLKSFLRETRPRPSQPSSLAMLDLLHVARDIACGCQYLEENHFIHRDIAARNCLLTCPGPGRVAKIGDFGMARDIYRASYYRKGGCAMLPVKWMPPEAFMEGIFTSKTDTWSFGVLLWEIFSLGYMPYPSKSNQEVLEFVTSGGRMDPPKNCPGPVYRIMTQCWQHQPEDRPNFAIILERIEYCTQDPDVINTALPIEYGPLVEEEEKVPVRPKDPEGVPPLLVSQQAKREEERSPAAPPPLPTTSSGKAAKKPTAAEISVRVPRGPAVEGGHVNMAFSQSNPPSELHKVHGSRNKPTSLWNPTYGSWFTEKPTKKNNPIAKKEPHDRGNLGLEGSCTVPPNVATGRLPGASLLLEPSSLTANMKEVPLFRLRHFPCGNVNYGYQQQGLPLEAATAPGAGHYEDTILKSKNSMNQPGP

Assays:
His-ALK^G1202R/L1196M = His-ALK^G1202R/L1196M (Homo sapiens, UniProt Q9UM73, G1202R/L1196M); assay: ALK G1202R/L1196M compound mutant kinase inhibitory activity assay (HTRF); settings: read-out: ALK^G1202R/L1196M Enzyme, IC50, ATP 4 µM, enzyme 0.5 nM, 1 hour at 23 °C
[1] = system: Baf3 EML4-ALK V1^G1202R/L1196M cells; settings: read-out: BaF3 EML4-ALK^G1102R/L1196M, IC50; 3 days incubation, Cell-Titer Glo
His-ALK^I1171N/D1203N = His-ALK^I1171N/D1203N (Homo sapiens, UniProt Q9UM73, D1203N/I1171N); assay: ALK I1171N/D1203N compound mutant kinase inhibitory activity assay (HTRF); settings: read-out: ALK^I1171N/D1203N Enzyme, IC50, ATP 1 µM, enzyme 0.3 nM, 1 hour at 23 °C
[2] = Body weight in the xenograft model study; settings: PO, 1 mg/kg, BID
[3] = Pharmacokinetics in rats after single oral gavage dose; settings: male SD rats, single oral gavage 5 mg/kg, plasma
[4] = system: Baf3 EML4-ALK V1^I1171N/D1203N cells; settings: read-out: BaF3 EML4-ALK^I1171N/D1203N IC50; 3 days incubation, Cell-Titer Glo
[5] = system: Ba/F3 EML4-ALK^G1202R/L1196M mutant cells; assay: In vivo efficacy in ALK mutant cell line xenograft model; settings: PO, 1 mg/kg, BID

Compound: CCn1nc(C#Cc2ccccn2)c2c1-c1cnc(N)c(c1)O[C@H](C)c1cc(F)ccc1-c1nn(C)cc1C2
- pIC50 (His-ALK^G1202R/L1196M): > 8.30
- pIC50 [1]: > 8.00
- pIC50 (His-ALK^I1171N/D1203N): > 8.30
- Body Weight Change (% of vehicle) Day 2 ([2]; Day 2): 99.3 % of vehicle
- Body Weight Change (% of vehicle) Day 4 ([2]; Day 4): 99.1 % of vehicle
- Body Weight Change (% of vehicle) Day 7 ([2]; Day 7): 92.6 % of vehicle
- Body Weight Change (% of vehicle) Day 11 ([2]; Day 11): 91.8 % of vehicle
- AUC0-inf [3]: 31917 ng·h/mL
- Cmax [3]: 2753 ng/mL
- T1/2 [3]: 2.89 h
- Tmax [3]: 3.00 h
- pIC50 [4]: > 8.00
- TGI (%) Day 2 ([5]; Day 2): 84.9%
- TGI (%) Day 4 ([5]; Day 4): 93.0%
- TGI (%) Day 7 ([5]; Day 7): 95.1%
- TGI (%) Day 11 ([5]; Day 11): 93.4%
